The values below are quoted from earlier work in patent publication US20220184087A1, “METHODS AND COMPOSITIONS RELATING TO TREATMENT OF CANCER” (The Penn State Research Foundation, priority 2019, published 2022).

Sequences of proteins named here, by UniProt entry; tags and fusion partners are left off.
UniProt Q00987, whole entry: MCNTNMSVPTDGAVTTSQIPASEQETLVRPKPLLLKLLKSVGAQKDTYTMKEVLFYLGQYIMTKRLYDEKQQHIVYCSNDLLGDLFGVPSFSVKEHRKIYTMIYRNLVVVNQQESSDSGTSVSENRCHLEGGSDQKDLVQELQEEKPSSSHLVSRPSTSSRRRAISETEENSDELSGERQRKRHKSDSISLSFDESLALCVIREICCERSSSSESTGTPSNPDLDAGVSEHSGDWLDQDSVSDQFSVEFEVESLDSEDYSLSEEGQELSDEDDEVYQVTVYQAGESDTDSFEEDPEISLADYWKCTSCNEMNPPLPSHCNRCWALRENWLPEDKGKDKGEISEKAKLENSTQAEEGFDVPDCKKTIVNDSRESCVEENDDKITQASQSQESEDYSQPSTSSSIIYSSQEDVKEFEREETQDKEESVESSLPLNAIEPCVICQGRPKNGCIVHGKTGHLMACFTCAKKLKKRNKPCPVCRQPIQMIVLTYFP

For the data set, the target named is p53-MDM2 and p53-MDM2-MDM4 complexes (Homo sapiens, UniProt Q00987).

For `COc1ccc(C2=N[C@@H](c3ccc(Cl)cc3)[C@@H](c3ccc(Cl)cc3)N2C(=O)N2CCNC(=O)C2)c(OC(C)C)c1` [nutlin-3], the “inhibition of p53-MDM2 and p53-MDM2-MDM4 complexes” value is reported as “inhibits”.
